Data published in patent US20150004237A1, “CELLULOSE DERIVATIVES FOR INHIBITING CRYSTALLIZATION OF POORLY WATER-SOLUBLE DRUGS” (Virginia Tech Intellectual Properties, Inc., priority 2012, published 2015).

Legend:
[1] = pH 6.8
[2] = pH 6.8; cited from earlier work

Equilibrium solubility of efavirenz in the presence of polymer [1]: 8.4 ± 0.03 µg/mL
Solubility of Ritonavir in the presence of polymer [1]: 1.4 ± 0.09 µg/mL
Substance: Hydroxypropyl methyl cellulose acetate succinate [HPMCAS]
Equilibrium solubility of ritonavir in the presence of polymer (Table 7) [2]: 1.4 ± 0.09 µg/mL
